Measured values taken from patent US9725465B2, “Biaryl acetamide compounds and methods of use thereof” (Ambit Biosciences Corporation, priority 2013, dated 2017).

Assays:
FLT3-ITD-F691L = FLT3-ITD-F691L (Homo sapiens (Human), UniProt P36888, F691L/INS600HVDFREYEYD); test: pFLT3 MSD assay, Ba/F3 FLT3-ITD-F691L; type: cell-based; details: Ba/F3 FLT3-ITD-F691L cells, 2 hours, read-out: BaF3-FLT3-ITD-F691L pFlt3 IC50
FLT3-ITD-D835V = FLT3-ITD-D835V (Homo sapiens (Human), UniProt P36888, D835V/INS600HVDFREYEYD); test: pFLT3 MSD assay, Ba/F3 FLT3-ITD-D835V; type: cell-based; details: Ba/F3 FLT3-ITD-D835V cells, 2 hours, read-out: BaF3-FLT3-ITD-D835V pFlt3 IC50
[1] = tested on: Ba/F3 cells expressing FLT3-ITD
[2] = tested on: Ba/F3 cells expressing FLT3-ITD-D835V

Row | IC50 (FLT3-ITD-F691L) | IC50 (FLT3-ITD-D835V) | IC50 [1] | IC50 [2] | SMILES
1 | < 10 nM | < 10 nM | < 10 nM | < 10 nM | COc1cc2nc(-c3ccc(CC(=O)Nc4cc(C5(C(F)(F)F)CC5)on4)c(F)c3)cnc2cc1OCCOC(C)=O [Example 130, 2-[2-[3-fluoro-4-[2-oxo-2-[[5-[1-(trifluoromethyl)cyclo-propyl]isoxazol-3-yl]amino]ethyl]phenyl]-7-methoxy-quinoxalin-6-yl]oxyethyl acetate]
2 | < 10 nM | < 10 nM | < 10 nM | < 10 nM | CN(C)CCNC(=O)c1cc2cc(-c3ccc(CC(=O)Nc4cc(C(C)(C)C)on4)cc3)cnc2[nH]1 [Example 66, 5-(4-(2-((5-(tert-butyl)isoxazol-3-yl)amino)-2-oxoethyl)phenyl)-N-(2-(dimethylamino)ethyl)-1H-pyrrolo[2,3-b]pyridine-2-carboxamide]
3 | < 10 nM | < 10 nM | < 10 nM | < 10 nM | COCCOc1cc2nc(-c3ccc(CC(=O)Nc4cc(C5(C(F)(F)F)CC5)on4)c(F)c3)cnc2cc1OC [compound 77]
4 | < 10 nM | < 10 nM | < 10 nM | < 10 nM | O=C(Cc1ccc(-c2cnc3[nH]ncc3c2)cc1)Nc1cc(C2(C(F)(F)F)CC2)on1 [Example 15, 2-(4-(1H-pyrazolo[3,4-b]pyridin-5-yl)phenyl)-N-(5-(1-(trifluoromethyl)cyclopropyl)isoxazol-3-yl)acetamide]
5 | < 10 nM | < 10 nM | < 10 nM | < 10 nM | CCOc1n[nH]c2ncc(-c3ccc(CC(=O)Nc4cc(C(C)(C)C(F)(F)F)on4)cc3)cc12 [Example 39, 2-(4-(3-ethoxy-1H-pyrazolo[3,4-b]pyridin-5-yl)phenyl)-N-(5-(1,1,1-trifluoro-2-methylpropan-2-yl)isoxazol-3-yl)acetamide]
6 | < 10 nM | < 10 nM | < 10 nM | < 10 nM | COc1cc2ncc(-c3ccc(CC(=O)Nc4cc(C5(C(F)(F)F)CC5)on4)cc3)nc2cc1OC [Example 1, 2-(4-(6,7-dimethoxyquinoxalin-2-yl)phenyl)-N-(5-(1-(trifluoromethyl)cyclopropyl)isoxazol-3-yl)acetamide]
7 |  |  | < 10 nM | < 10 nM | COc1cc2nc(-c3ccc(CC(=O)Nc4cc(C5(C(F)(F)F)CC5)on4)c(F)c3)cnc2cc1OCCCNC(C)=O [Example 237, 2-[4-[6-(3-acetamidopropoxy)-7-methoxy-quinoxalin-2-yl]-2-fluoro-phenyl]-N-[5-[1-(trifluoromethyl)cyclo-propyl]isoxazol-3-yl]acetamide]
8 |  |  | < 10 nM | < 10 nM | CC(=O)N(C)CCOc1cc2ncc(-c3ccc(CC(=O)Nc4cc(C(C)(C)C(F)(F)F)on4)c(F)c3)nc2cc1OCCN(C)C(C)=O [Example 221, 2-[4-[6,7-bis[2-[acetyl(methyl)amino]ethoxy]quinoxalin-2-yl]-2-fluoro-phenyl]-N-[5-(2,2,2-trifluoro-1,1-dimethyl-ethyl)isoxazol-3-yl]acetamide]
9 |  |  | < 10 nM | < 10 nM | COc1cc2ncc(-c3ccc(CC(=O)Nc4cc(C(C)(C)C(F)(F)F)on4)c(F)c3)nc2cc1OCCN1CCOCC1 [Example 187, 2-[2-fluoro-4-[6-methoxy-7-(2-morpholino-ethoxy)quinoxalin-2-yl]phenyl]-N-[5-(2,2,2-trifluoro-1,1-dimethyl-ethyl)isoxazol-3-yl]acetamide]
10 |  |  | < 10 nM | < 10 nM | COCCOc1cc2cc(-c3ccc(CC(=O)Nc4cc(C5(C(F)(F)F)CC5)on4)c(F)c3)cnc2cc1OC [Example 188, 2-[2-fluoro-4-[7-methoxy-6-(2-methoxyethoxy)-3-quinolyl]phenyl]-N-[5-[1-(trifluoromethyl)cyclo-propyl]isoxazol-3-yl]acetamide]
11 |  |  | < 10 nM | < 10 nM | COc1cc2nc(-c3ccc(CC(=O)Nc4cc(C(C)(C)C(F)(F)F)n[nH]4)c(F)c3)cnc2cc1OCCN1CCOCC1 [Example 235, 2-[2-fluoro-4-[7-methoxy-6-(2-morpholino-ethoxy)quinoxalin-2-yl]phenyl]-N-[3-(2,2,2-trifluoro-1,1-dimethyl-ethyl)-1H-pyrazol-5-yl]acetamide]
12 |  |  | < 10 nM | < 10 nM | COc1cc2nc(-c3ccc(CC(=O)Nc4cc(C5(C(F)(F)F)CC5)on4)c(F)c3)cnc2cc1OCCN1CC2CC1CO2 (centres unmarked) [Example 224, 2-[2-fluoro-4-[7-methoxy-6-[2-(2-oxa-5-azabicyclo[2.2.1]heptan-5-yl)ethoxy]quinoxalin-2-yl]phenyl]-N-[5-[1-(trifluoromethyl)cyclo-propyl]isoxazol-3-yl]acetamide]
13 |  |  | < 10 nM | 10 to 20 nM | COc1cc2nc(-c3ccc(CC(=O)Nc4cc(C5(C(F)(F)F)CC5)on4)c(F)c3)cnc2cc1NCCN1CCOCC1 [Example 85, 2-(2-fluoro-4-(7-methoxy-6-((2-morpholinoethyl)amino)quinoxalin-2-yl)phenyl)-N-(5-(1-(trifluoromethyl)cyclopropyl)isoxazol-3-yl)acetamide]
14 |  |  | < 10 nM | < 10 nM | COc1cc2ncc(-c3ccc(CC(=O)Nc4cc(C5(C(F)(F)F)CC5)on4)c(F)c3)nc2cc1OCC(O)CO (centres unmarked) [Example 236, 2-[4-[7-(2,3-dihydroxypropoxy)-6-methoxy-quinoxalin-2-yl]-2-fluoro-phenyl]-N-[5-[1-(trifluoromethyl)cyclo-propyl]isoxazol-3-yl]acetamide]
15 |  |  | < 10 nM | < 10 nM | COc1cc2nc(-c3ccc(CC(=O)Nc4cc(C5(C(F)(F)F)CC5)on4)c(F)c3)cnc2cc1OCCN1CCCOCC1 [Example 240, 2-[2-fluoro-4-[7-methoxy-6-[2-(1,4-oxazepan-4-yl)ethoxy]quinoxalin-2-yl]phenyl]-N-[5-[1-(trifluoromethyl)cyclo-propyl]isoxazol-3-yl]acetamide]
16 |  |  | < 10 nM | < 10 nM | COc1cc2ncc(-c3ccc(CC(=O)Nc4cc(C5(C(F)(F)F)CC5)nn4C)c(F)c3)nc2cc1OC [Example 172, 2-[4-(6,7-dimethoxyquinoxalin-2-yl)-2-fluoro-phenyl]-N-[2-methyl-5-[1-(trifluoro-methyl)cyclopropyl]pyrazol-3-yl]acetamide]
17 |  |  | < 10 nM | 10 to 20 nM | COc1cc2ncc(-c3ccc(CC(=O)Nc4cc(C(C)(C)C(F)(F)F)on4)c(F)c3)cc2cc1OCCN [Example 204, 2-[4-[6-(2-aminoethoxy)-7-methoxy-3-quinolyl]-2-fluoro-phenyl]-N-[5-(2,2,2-trifluoro-1,1-dimethyl-ethyl)isoxazol-3-yl]acetamide]
18 |  |  | < 10 nM | < 10 nM | COc1cc2cc(-c3ccc(CC(=O)Nc4cc(C(C)(C)C(F)(F)F)on4)c(F)c3)cnc2cc1OCCNCCO [Example 201, 2-[2-fluoro-4-[7-[2-(2-hydroxyethylamino)ethoxy]-6-methoxy-3-quinolyl]phenyl]-N-[5-(2,2,2-trifluoro-1,1-dimethyl-ethyl)isoxazol-3-yl]acetamide]
19 |  |  | < 10 nM | < 10 nM | COc1cc2nc(-c3ccc(CC(=O)Nc4cc(C5(C(F)(F)F)CC5)on4)c(F)c3)cnc2cc1OCCN1CCOC[C@@H]1C [Example 243, 2-[2-fluoro-4-[7-methoxy-6-[2-[(3S)-3-methylmorpholin-4-yl]ethoxy]quinoxalin-2-yl]phenyl]-N-[5-[1-(trifluoromethyl)cyclo-propyl]isoxazol-3-yl]acetamide]
20 |  |  | < 10 nM | < 10 nM | COc1cc2ncc(-c3ccc(CC(=O)Nc4cc(C(C)(C)C(F)(F)F)n[nH]4)c(F)c3)nc2cc1OC [Example 182, 2-[4-(6,7-dimethoxyquinoxalin-2-yl)-2-fluoro-phenyl]-N-[3-(2,2,2-trifluoro-1,1-dimethyl-ethyl)-1H-pyrazol-5-yl]acetamide]
21 |  |  | < 10 nM | > 50 nM | COc1cc2nc(-c3ccc(CC(=O)Nc4cc(C5(C(F)(F)F)CC5)on4)c(F)c3)cnc2cc1C(C)(O)CO (centres unmarked) [Example 233, 2-[4-[6-(1,2-dihydroxy-1-methyl-ethyl)-7-methoxy-quinoxalin-2-yl]-2-fluoro-phenyl]-N-[5-[1-(trifluoro-methyl)cyclopropyl]isoxazol-3-yl]acetamide]
22 |  |  | < 10 nM | < 10 nM | COc1cc2nc(-c3ccc(CC(=O)Nc4cc(C5(C(F)(F)F)CC5)on4)c(F)c3)cnc2cc1OCCN1CCOCC1(C)C [Example 96, 2-(4-(6-(2-(3,3-dimethylmorpholino)ethoxy)-7-methoxyquinoxalin-2-yl)-2-fluorophenyl)-N-(5-(1-(trifluoromethyl)cyclopropyl)isoxazol-3-yl)acetamide]
23 |  |  | < 10 nM | < 10 nM | COc1cc2ncc(-c3ccc(CC(=O)Nc4cc(C(C)(C)C(F)(F)F)on4)cc3F)nc2cc1OC [Example 217, 2-[4-(6,7-dimethoxyquinoxalin-2-yl)-3-fluoro-phenyl]-N-[5-(2,2,2-trifluoro-1,1-dimethyl-ethyl)isoxazol-3-yl]acetamide]
24 |  |  | < 10 nM | < 10 nM | COc1cc2ncc(-c3cc(F)c(CC(=O)Nc4cc(C(C)(C)C(F)(F)F)on4)cc3F)nc2cc1OC [Example 219, 2-[4-(6,7-dimethoxyquinoxalin-2-yl)-2,5-difluoro-phenyl]-N-[5-(2,2,2-trifluoro-1,1-dimethyl-ethyl)isoxazol-3-yl]acetamide]

Row | SMILES | IC50 (FLT3-ITD-F691L) | IC50 (FLT3-ITD-D835V) | IC50 [1] | IC50 [2]
25 | COc1cc2ncc(-c3ccc(CC(=O)Nc4cc(C5(C(F)(F)F)CC5)nn4C(C)(C)C)c(F)c3)nc2cc1OC [Example 173, N-[2-tert-butyl-5-[1-(trifluoromethyl)cyclo-propyl]pyrazol-3-yl]-2-[4-(6,7-dimethoxy-quinoxalin-2-yl)-2-fluoro-phenyl]acetamide] |  |  | < 10 nM | > 50 nM
